Laboratory results: patent US20070021439A1, “Methods of reducing risk of infection from pathogens with soluble amide and ester pyrazinoylguanidine sodium channel blockers” (Parion Sciences, Inc., priority 2005, published 2007)
Where a name gives a salt, the structure may show the parent alone.

Assay: Solubility of compounds in sodium chloride solution
Format: physicochemical
Details: ambient temperature, tested form: bis(methanesulfonate)
Experimental: Compound solubility was measured in water, 0.12 or 0.9% sodium chloride solution at ambient temperature for up to 10 days. Using a UV/Visable Spectrophotometer and applying Beer's Law with the calculated extinction coefficient of amiloride (18.6 mM, absorbance values at 362 nm taken from D. Mazzo 1986) the free base concentration in solution was calculated at specified time points. All samples were stored for the duration of the experiment in a single/closure system consisting of glass vials with a stopper-top closure. The vials were maintained at ambient temperature, in the dark, and in the upright position. Compound stability was measured using reverse phase high performance liquid chromatography on the final filtered pulled sample (day 10).
Table 2 gives the solubility in saline of selected amide bis methane sulfonic acid salts and compares them to the mono addition methane sulfonic acid salt of PSA 9714.

Compound	S1 = Solubility in 0.12% NaCl Solution	S2 = Solubility in 0.9% NaCl Solution (normal Saline)
N=C(NCCCCc1ccc(OCC(=O)NCCN(CCO)CCO)cc1)NC(=O)c1nc(Cl)c(N)nc1N	>5000 µg/mL	>5000 µg/mL
CN(C)CCNC(=O)COc1ccc(CCCCNC(=N)NC(=O)c2nc(Cl)c(N)nc2N)cc1	>5000 µg/mL	
CN(C)CCCCNC(=O)COc1ccc(CCCCNC(=N)NC(=O)c2nc(Cl)c(N)nc2N)cc1	>5000 µg/mL	>5000 µg/mL
CN(C)CCCNC(=O)COc1ccc(CCCCNC(=N)NC(=O)c2nc(Cl)c(N)nc2N)cc1 (as salt: methanesulfonate)	>5000 µg/mL	
